{"source": "ChEMBL document CHEMBL5120941", "about": "(ACS Med Chem Lett, 2022)", "key": {"[1]": {"experiment": "Drug metabolism in basic aqueous medium assessed as deacetylated metabolite formation measured at pH >=8", "details": "buffer"}, "[2]": {"experiment": "Drug metabolism in Sprague-Dawley rat assessed as AUC(0 to 24 hrs) of-contezolid at 10 mg/kg, iv by HPLC-MS/MS analysis", "details": "in vivo"}, "[3]": {"experiment": "Stability of the compound measured under refrigerated conditions at temperature of 5 to 8 degC"}, "[4]": {"experiment": "Stability of the compound in aqueous solutions at pH 4 to 7.4 measured after 72 hrs", "details": "buffer, pH 4, 72 h"}, "[5]": {"experiment": "Stability of the compound measured under storage conditions at ambient temperature"}, "[6]": {"experiment": "Aqueous solubility of the compound in aqueous 5% dextrose at 25 degC", "details": "buffer"}, "[7]": {"experiment": "Stability of the compound in lyophilized powder form measured at room temperature under anhydrous conditions"}, "[8]": {"experiment": "Stability of the compound in aqueous solutions measured at pH 8.5 to 9", "details": "buffer"}}, "data": [{"compound": "CC(=O)OP(=O)([O-])N(C[C@H]1CN(c2cc(F)c(N3C=CC(=O)CC3)c(F)c2F)C(=O)O1)c1ccon1.[Na+]", "values": [{"measurement": "Drug metabolism", "setting": "[1]", "value": "Metabolite_Detected"}, {"measurement": "AUC", "setting": "[2]", "value": 33400, "unit": "ng·h/mL"}, {"measurement": "Stability", "setting": "[3]", "value": "Stable"}, {"measurement": "Stability", "setting": "[4]", "value": "Stable"}, {"measurement": "Stability", "setting": "[5]", "value": "Stable"}]}, {"compound": "COP(=O)(O)N(C[C@H]1CN(c2cc(F)c(N3C=CC(=O)CC3)c(F)c2F)C(=O)O1)c1ccon1", "values": [{"measurement": "AUC", "setting": "[2]", "value": 700, "unit": "ng·h/mL"}, {"measurement": "solubility", "setting": "[6]", "value": 23, "unit": "mg/mL"}]}, {"compound": "O=C1C=CN(c2c(F)cc(N3C[C@H](CN(c4ccon4)P(=O)([O-])[O-])OC3=O)c(F)c2F)CC1.[Na+].[Na+]", "values": [{"measurement": "Stability", "setting": "[7]", "value": "Stable"}, {"measurement": "Stability", "setting": "[8]", "value": "Stable"}, {"measurement": "AUC", "setting": "[2]", "value": 34000, "unit": "ng·h/mL"}]}]}
